{"source": "patent US8633227B2", "about": "“Synthesis and novel salt forms of (R)-3-((E)-pyrrolidin-3-yl)vinyl)-5-tetrahydropyran-4-yloxy)pyridine” (priority 2008, dated 2014)", "assay": "Preliminary salt screen", "type": "physicochemical", "settings": "equi-millimolar base and acid, 2-propanol or acetonitrile, alternative solvents", "experimental": "Test tubes (4 mL), provided with magnetic stir bars, were charged with equi-milimolar amounts of (R)-3-((E)-2-(pyrrolidin-3-yl)vinyl)-5-(tetrahydropyran-4-yloxy)pyridine base and the acid of interest (neat) and dissolved with 500 μL of either 2-propanol or acetonitrile with the aid of heat.\nIf no precipitation occurred, the solvent was evaporated under a nitrogen stream with moderate heating and an alternative solvent was tried. Alternative solvents included acetone, ethyl acetate, isopropyl acetate, absolute ethanol, acetonitrile, hexane, tert-butanol, tert-butyl acetate, and blends thereof.\nThe use of alcohols was avoided in the case of sulfonic acids."}
{"substance": "Phosphoric", "values": [{"measurement": "Result of preliminary salt screen (physical form obtained)", "value": "Gum"}]}
